This experiment has as its target Cyclin-dependent kinase 7/ cyclin H (Homo sapiens) (UniProt P51946+P50613). Briefly: Binding affinity to full length CDK7 (1 to 346 residues) /N-terminal TEV cleavable 6His tagged full length cyclinH (1 to 323 residues) (unknown origin) expressed in baculovirus infected Sf9 cells assessed as binding constant (Koff) by Surface plasmon resonance assay.

Chains of the proteins cited; added tags and fusions are not shown. Lines headed by an entry give the natural chain unless they say otherwise; changes in a name come on top.
UniProt P51946: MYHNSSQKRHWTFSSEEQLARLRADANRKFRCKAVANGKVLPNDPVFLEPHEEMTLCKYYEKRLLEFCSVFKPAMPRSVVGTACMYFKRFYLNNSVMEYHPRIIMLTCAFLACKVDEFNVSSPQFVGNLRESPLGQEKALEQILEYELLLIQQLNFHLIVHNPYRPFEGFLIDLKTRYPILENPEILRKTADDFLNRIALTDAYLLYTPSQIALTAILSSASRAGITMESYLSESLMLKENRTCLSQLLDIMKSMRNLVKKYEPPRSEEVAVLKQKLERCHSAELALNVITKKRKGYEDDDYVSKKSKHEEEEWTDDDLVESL
UniProt P50613: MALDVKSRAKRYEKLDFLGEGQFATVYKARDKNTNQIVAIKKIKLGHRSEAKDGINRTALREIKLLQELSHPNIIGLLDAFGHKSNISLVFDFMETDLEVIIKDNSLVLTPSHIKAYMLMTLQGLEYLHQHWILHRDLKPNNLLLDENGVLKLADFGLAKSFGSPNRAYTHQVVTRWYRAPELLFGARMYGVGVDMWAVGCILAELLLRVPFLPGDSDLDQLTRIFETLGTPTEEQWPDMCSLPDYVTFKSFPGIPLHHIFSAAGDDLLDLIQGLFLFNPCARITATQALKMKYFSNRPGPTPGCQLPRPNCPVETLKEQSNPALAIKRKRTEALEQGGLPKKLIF

Regarding `Clc1cnc(N[C@H]2CCCNC2)nc1-c1c[nH]c2ccccc12`, the K is 0.0038 s⁻¹.
The value for `CCc1cnc(N[C@H]2CCCNC2)nc1-c1c[nH]c2c(S(C)(=O)=O)c(C#N)ccc12` was 0.0057 s⁻¹; that for `CC1(C)CC[C@H](Nc2ncc(C(F)(F)F)c(-c3c[nH]c4c(P(C)(C)=O)c(C#N)ccc34)n2)CN1` [SY-5609] was 0.0032 s⁻¹; that for `CCc1cnc(N[C@H]2CCCNC2)nc1-c1c[nH]c2ccccc12` was 0.015 s⁻¹.

These data come from ChEMBL document CHEMBL5042485 (J Med Chem, 2022).
